Results from PubChem BioAssay AID488847 (NMMLSC, 2010).
The list shows a part of the results, in another mix than the full data. The source made the active and inactive calls.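 The calls were made as follows: active = inhibition of aptamer binding above 40%, roughly 3 SD of noise, on plates passing a quality check; inactive = the rest.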

The chains behind the UniProt entries cited, without tags or fusion partners.
UniProt P25098, whole entry: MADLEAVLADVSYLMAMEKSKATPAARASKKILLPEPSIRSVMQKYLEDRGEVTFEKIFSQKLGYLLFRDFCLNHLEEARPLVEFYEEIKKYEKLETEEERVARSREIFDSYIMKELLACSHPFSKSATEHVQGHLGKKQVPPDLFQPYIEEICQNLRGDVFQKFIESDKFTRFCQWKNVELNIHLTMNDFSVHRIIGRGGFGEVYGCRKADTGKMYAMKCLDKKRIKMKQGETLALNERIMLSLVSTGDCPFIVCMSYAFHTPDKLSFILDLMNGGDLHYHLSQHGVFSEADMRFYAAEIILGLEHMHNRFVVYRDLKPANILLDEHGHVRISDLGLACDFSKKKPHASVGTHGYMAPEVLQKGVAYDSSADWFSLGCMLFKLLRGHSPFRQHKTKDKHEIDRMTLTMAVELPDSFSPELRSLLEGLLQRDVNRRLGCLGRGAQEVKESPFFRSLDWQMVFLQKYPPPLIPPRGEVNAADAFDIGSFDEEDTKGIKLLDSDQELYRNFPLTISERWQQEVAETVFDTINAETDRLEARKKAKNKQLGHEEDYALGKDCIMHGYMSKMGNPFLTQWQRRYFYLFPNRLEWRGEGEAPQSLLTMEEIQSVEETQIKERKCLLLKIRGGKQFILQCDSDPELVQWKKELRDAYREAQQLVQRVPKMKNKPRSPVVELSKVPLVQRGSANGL

target: Beta-adrenergic receptor kinase 1 (Homo sapiens) (UniProt P25098); assay: compounds blocking aptamer binding on GRK2 – biochemical, human GRK2, bead flow cytometry, HTS, primary screen (AID 488847); details: FAM-aptamer displacement from GRK2, at 10 µM; stronger effect = higher value;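 as to inhibition of aptamer binding: median bead fluorescence of bound FAM aptamer so fluorescent compounds give negative values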

SMILES	inhibition of aptamer binding
O=[N+]([O-])c1cc([N+](=O)[O-])c(Nc2nnnn2CCO)c([N+](=O)[O-])c1	inactive: 0%
CCOC(=O)C(CC)C1=NC(C)(C)Cc2ccccc21.O=[N+]([O-])c1cc([N+](=O)[O-])c(O)c([N+](=O)[O-])c1 (stereo not given)	inactive: 0%
CN1CCCCC1COC(=O)C1(O)c2ccccc2CCc2ccccc21 (stereo not given)	inactive
COc1ccccc1OP(C)(=O)Nc1c(C)cccc1C (stereo not given)	inactive: 6%
O=P1(Nc2ncccn2)COc2ccccc2OC1	inactive
CCCOc1ccc(NP(C)(=O)Oc2ccc(Cl)cc2)cc1 (stereo not given)	inactive: 1%
CP(=O)(Nc1ccc(SC(F)(F)F)cc1)Oc1ccccc1 (stereo not given)	inactive: 0%
Nc1cccc([As](=O)(O)c2ccccc2)c1	inactive
O=P1(Nc2ccccn2)COc2ccccc2OC1	inactive
O=[N+]([O-])c1cc([N+](=O)[O-])c(-n2nnc3ccccc32)c([N+](=O)[O-])c1	inactive: 1%
CCOP(=O)(NC(=NC(C)c1ccccc1)NC(C)c1ccccc1)OCC (stereo not given)	inactive
CCOP(=O)(Nc1ccc(C)cn1)OCC	inactive
CN(CCCl)Cc1cc(Cl)c(NC2=NCCN2)c(Cl)c1	inactive
O=[N+]([O-])c1cc([N+](=O)[O-])c(-c2cnn(-c3ccccc3)c2)c([N+](=O)[O-])c1	inactive: 2%
COc1ccccc1CNC(=O)COC(=O)C(O)(c1ccccc1)c1ccccc1	inactive
CN(C(=O)Cc1ccc(Cl)c(Cl)c1)[C@@H]1CCCC[C@H]1N1CCCC1	inactive
CC(C)/C=N\N=C(\N)N[N+](=O)[O-]	inactive
Cc1nc2ccc3ccccc3c2s1.O=[N+]([O-])c1cc([N+](=O)[O-])c(O)c([N+](=O)[O-])c1	inactive: 2%
CP(=O)(Nc1ccc(SC(F)(F)F)cc1)Oc1ccc(Cl)cc1 (stereo not given)	inactive: 0%
Cc1cccc(C)c1OP(C)(=O)Nc1ccc(SC(F)(F)F)cc1 (stereo not given)	inactive: 0%
CP(=O)(Oc1ccccc1)OC(c1ccccc1)C(F)(F)F (stereo not given)	inactive: 1%
CP(=O)(NC(=O)Nc1ccccc1)Oc1ccccc1 (stereo not given)	inactive: 1%

SMILES	inhibition of aptamer binding
O=C(COc1ccccc1)OC1CN2CCC1CC2 (stereo not given)	inactive
CCc1ccc(OP(C)(=O)N2CCN(c3ccc([N+](=O)[O-])cc3)CC2)cc1 (stereo not given)	inactive: 0%
Cc1cc(C)cc(OP(C)(=O)Nc2ccc(SC(F)(F)F)cc2)c1 (stereo not given)	inactive: 0%
O=C(Nc1ccncc1[N+](=O)[O-])c1ccc([N+](=O)[O-])cc1[N+](=O)[O-]	inactive
O=C(OC1CN2CCC1CC2)c1cccc([N+](=O)[O-])c1 (stereo not given)	inactive
CCOP(C)(=S)SCC(=O)NC(C)C(=O)O (stereo not given)	inactive: 2%
O=[N+]([O-])c1cc([N+](=O)[O-])c(O)c([N+](=O)[O-])c1.c1ccc(Oc2ccncc2)cc1	inactive: 0%
CCOC(=O)c1ccc(NP(C)(=O)Oc2ccc(OC)cc2)cc1 (stereo not given)	inactive: 1%
CP(=O)(Nc1ccccn1)Oc1ccc(Cl)cc1 (stereo not given)	inactive: 0%
CP(=S)(Nn1cnnc1)Oc1ccccc1 (stereo not given)	inactive: 0%
CCOC(=O)Nc1cccc([As](=O)(O)O)c1	inactive
COc1ccccc1OP(C)(=O)Nc1ccccc1 (stereo not given)	inactive: 0%
CP(=O)(Nc1ccccc1Br)Oc1ccccc1 (stereo not given)	inactive: 0%
O=[N+]([O-])c1cc([N+](=O)[O-])c(Nc2cccnc2)c([N+](=O)[O-])c1	inactive: 0%
COc1cc(C(=O)NCC2(N3CCOCC3)CCCCC2)ccc1OCC(C)C	inactive
CC(C)(C)c1ccc(OP(C)(=O)Nc2ccc(SC(F)(F)F)cc2)cc1 (stereo not given)	inactive: 0%
Cc1cccc(C)c1OP(C)(N)=O (stereo not given)	inactive: 0%
O=[N+]([O-])c1ccc2c(c1)C=Nc1ccccc1O2	inactive: 2%
Cc1ccc2nc3c(c(C)c2c1)CC(C(Cl)Cl)S3 (stereo not given)	inactive
CCOC(=O)c1ccc(NP(C)(=O)Oc2ccccc2)cc1 (stereo not given)	inactive: 0%
ClCCSc1nnc(-c2cccnc2)o1	inactive
COc1ccccc1OP(C)(=O)Nc1ccc(C)cc1 (stereo not given)	inactive: 0%

SMILES	inhibition of aptamer binding
CC(C)c1ccc(OP(=O)(Nc2ccccn2)Oc2ccccc2F)cc1 (stereo not given)	inactive
Cc1ccc(NP(C)(=O)Oc2ccccc2)c(C)c1 (stereo not given)	inactive: 3%
COc1ccccc1OP(C)(=O)Nc1cc(Cl)ccc1C (stereo not given)	inactive: 2%
CCN(CC)C(=S)SC(NC=O)C(Cl)(Cl)Cl (stereo not given)	inactive
COc1ccc(OP(C)(=O)Nc2cccc(F)c2)cc1 (stereo not given)	inactive: 5%
Cc1cc(C)cc(OP(C)(N)=O)c1 (stereo not given)	inactive: 0%
CCN(CC)CCCOC(=O)C(O)(c1ccccc1)c1ccccc1	inactive: 0%
Cc1cc(=O)[nH]c(N[N+](=O)[O-])n1	inactive
COc1cc(I)ccc1[As](=O)(O)O	inactive
COc1ccc(N/C(=N/P(=O)(N2CCOCC2)N2CCOCC2)N2CCOCC2)cc1	inactive
CN(C(=O)Cc1ccc(Cl)c(Cl)c1)[C@H]1CCCC[C@H]1N1CCCC1	inactive
COc1ccccc1OP(C)(=O)Nc1ccc(Br)cc1 (stereo not given)	inactive: 1%
Cc1ccc(N/C(=N/P(=O)(N2CCOCC2)N2CCOCC2)N2CCOCC2)cc1	inactive
CN1CCCC(OC(=O)C(c2ccccc2)c2ccccc2)C1 (stereo not given)	inactive
CN(C)CCOC(=O)C(O)(c1ccccc1)C1CCCC1 (stereo not given)	inactive
Clc1ccc(Cl)c(NC2=NCC(CBr)S2)c1 (stereo not given)	inactive
COc1ccc(OP(C)(=O)Nc2ccccn2)cc1 (stereo not given)	inactive: 0%
O=C(NC(Sc1ccncn1)C(Cl)(Cl)Cl)c1ccccc1 (stereo not given)	inactive
Cc1c2non([O-])c-2c(C)[n+](=O)[n+]1[O-]	inactive
Nc1cc(N)c2nonc2c1[N+](=O)[O-]	inactive
Cc1c(NP(C)(=O)Oc2ccc(C(C)C)cc2)c(=O)n(-c2ccccc2)n1C (stereo not given)	inactive: 1%
O=[N+]([O-])c1cc([N+](=O)[O-])c(Nc2ccccn2)c([N+](=O)[O-])c1	inactive: 0%

SMILES	inhibition of aptamer binding
CC(C)CC(=O)NC(Sc1ccc(Cl)cc1)C(Cl)(Cl)Cl (stereo not given)	inactive
CCc1ccc(OP(C)(=O)O)cc1	inactive: 2%
CP(=O)(Nc1ccccn1)Oc1ccccc1 (stereo not given)	inactive: 0%
COc1ccccc1OP(C)(=O)Nc1ccc(C)cc1C (stereo not given)	inactive: 0%
O=P(Nc1nc2ccc(Cl)cc2s1)(c1ccccc1)c1ccccc1	inactive
Cc1cc(C)cc(OP(C)(=O)Nc2cccc(C(F)(F)F)c2)c1 (stereo not given)	inactive: 3%
COc1ccc(OP(C)(=O)Nc2ccccc2Br)cc1 (stereo not given)	inactive: 2%
CCOP(=O)(Nc1ccccc1)OCC	inactive
COc1ccccc1OP(C)(=O)Nc1ccc(C)c(C)c1 (stereo not given)	inactive: 0%
CN(C(=O)Cc1ccc(Cl)c(Cl)c1)[C@H]1CCCC[C@@H]1N1CCCC1	inactive
Cc1nc2ccc3ccccc3c2o1.O=[N+]([O-])c1cc([N+](=O)[O-])c(O)c([N+](=O)[O-])c1	inactive: 2%
CP(=O)(Nc1ccc(Cl)cc1Cl)Oc1ccccc1 (stereo not given)	inactive: 0%
CP(=O)(OCCOc1ccccc1)OCCOc1ccccc1	inactive: 1%
CCN(N=Nc1nonc1N)c1nonc1N	inactive
Nc1ccc2c(ccc3cccnc32)n1.O=[N+]([O-])c1cc([N+](=O)[O-])c(O)c([N+](=O)[O-])c1	inactive: 1%
CP(=O)(OC12CC3CC(CC(C3)C1)C2)OC12CC3CC(CC(C3)C1)C2	inactive: 0%
CCOC(=O)c1ccc(NP(C)(=O)Oc2ccc(Cl)cc2)cc1 (stereo not given)	inactive: 2%
O=C(Nc1cc([As](=O)(O)O)ccc1O)c1ccccc1	inactive
CC(C)(C)C(=O)NC(Sc1ccncn1)C(Cl)(Cl)Cl (stereo not given)	inactive
CCN(CC)CC(O)COC(=O)C(O)(c1ccccc1)C1CCCCC1 (stereo not given)	inactive: 2%
COc1ccc(OP(C)(=O)Nc2ccc(Br)cc2)cc1 (stereo not given)	inactive: 0%
CP(=O)(Oc1ccccc1)N1CCOC1=O (stereo not given)	inactive: 2%

SMILES	inhibition of aptamer binding
CCc1ccc(OP(C)(=O)Nc2cccnc2)cc1 (stereo not given)	inactive: 0%
CCc1nc2c(n1)c1c(non1O)c1c2no[n+]1[O-]	inactive
CC(=O)N1C2C3N(C(C)=O)C1C1N(C(C)=O)C(C(N1C(C)=O)N3C(C)=O)N2C(C)=O	inactive
COc1ccccc1OP(C)(=O)Nc1c(C)n(C)n(-c2ccccc2)c1=O (stereo not given)	inactive: 0%
O=C(OCCCN1CCCC1)C(O)(c1ccccc1)C1CCCCC1 (stereo not given)	inactive: 0%
CCN(/C(=N/P(=O)(N1CCOCC1)N1CCOCC1)N1CCOCC1)c1ccc(OC)cc1	inactive
CP(=O)(Nc1ccc(Cl)cc1)Oc1ccc(F)cc1 (stereo not given)	inactive: 0%
COc1ccccc1OP(C)(=O)Nc1ccccc1Br (stereo not given)	inactive: 3%
CC(C)(C)c1ccc(OP(C)(=O)O)cc1	inactive: 1%
CC1CCN(C(=O)Oc2c(Cl)cc(Cl)c3cccnc23)CC1	inactive
CN(C)C(=O)c1c([N+](=O)[O-])cc([N+](=O)[O-])cc1[N+](=O)[O-]	inactive: 1%
CN(C)C(=O)OCCc1n(C)cc[n+]1C	inactive
CC(C)C(=O)NC(Sc1ccccc1)C(Cl)(Cl)Cl (stereo not given)	inactive
CP(=O)(Nc1ccc(SC(F)(F)F)cc1)Oc1ccc(F)cc1 (stereo not given)	inactive: 0%
CCOP(C)(=S)SCC(=O)NC(C)(CC)C(=O)O (stereo not given)	inactive: 0%
CP(=O)(Nc1ccc2c(c1)OCCO2)Oc1ccccc1 (stereo not given)	inactive: 0%
Cc1ccccc1NP(C)(=O)Nc1ccccc1C	inactive: 1%
COc1ccc(OP(C)(=O)Nc2cccc(Br)c2)cc1 (stereo not given)	inactive: 0%
COc1ccc(NP(C)(=O)Oc2ccccc2OC)cc1 (stereo not given)	inactive: 3%
O=P(Nc1nc2ccccc2s1)(c1ccccc1)c1ccccc1	inactive
CN(C)CCOC(=O)C(O)(c1ccccc1)C1CCCCC1 (stereo not given)	inactive: 1%
C[C@H]1OP(=O)(Oc2ccccc2)[C@H](O)[C@H](O)[C@H]1N=[N+]=[N-] (stereo not given in full)	inactive
